## Binding of CDR-mutated scFvs to a peptide of the spike HR2 region

All variants were tested on one target, the spike HR2 peptide PDVDLGDISGINAS (SARS-CoV-2).

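Designed CDR sequences, proposed from the first random library and measured here. Several design methods are mixed in this list. The scFvs were displayed on barcoded MATa yeast, the peptide on MATalpha yeast. The frequency of each diploid, read from paired DNA barcodes, reflects how well the two displayed proteins bind. Each replicate has its own calibration line, from reference interactions of the BCL2 family. Each pool was mated in six replicate cultures.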

Each scFv is VH, a 15-residue (Gly4Ser)3 linker, VL, as in the parent Ab-14, and differs from it in the CDRs of the light chain only.
VH: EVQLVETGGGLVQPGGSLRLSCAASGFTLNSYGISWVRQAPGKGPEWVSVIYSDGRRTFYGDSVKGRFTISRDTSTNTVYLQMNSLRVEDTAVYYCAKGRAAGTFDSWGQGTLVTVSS
VL: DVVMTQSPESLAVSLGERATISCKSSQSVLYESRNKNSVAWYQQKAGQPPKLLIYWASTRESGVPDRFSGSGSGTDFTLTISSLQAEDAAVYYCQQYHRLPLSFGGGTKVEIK

Variants are written as CDR1, CDR2 and CDR3 of the light chain (limits as in the source). Parent: KSSQSVLYESRNKNSVA, WASTRES, QQYHRLPLS. Each Kd is an estimate from the mating assay, the geometric mean of the replicates in which the pair was seen; lower is stronger. "no signal" marks a missing value. The strain was present, yet no cells mated with the target were sequenced in any replicate, which points to weak or no binding. The range of this assay differs from that of the first round, and the authors advise against merging the two.

apparent Kd	seen in	CDR-L1	CDR-L2	CDR-L3
620 pM	6/6	KLQQQWLYESRNKNSVA	NASTREE	QQYHRLPLS
2.6 nM	6/6	KLLQTVMNETRNKNNVA	HMTTRED	QQYHRLPLS
no signal	0/6	KSSQSVLYESSNVNSVA	WASTREV	QQYHRLPVS
1.8 nM	6/6	MVNGIMDHLSKQTNNVA	ETTTRER	QQYERLPLS
10 nM	6/6	KQSQSVLYESRNCNSVA	SASTRES	QDYHRLPLS
7.4 nM	6/6	QLTMITGHMSVSKNNVA	EMETRMN	QQYDRLPLS
170 nM	5/6	QLEQLVWPMGKDWHSIA	NATTLLA	QQYYYLPLM
2.0 nM	6/6	KVSQSVLYESRMKNSVA	EASTRES	QQYHRLPLS
3.6 nM	6/6	KSSQSVLYESRNTNSVA	AASTRES	QQYARLPLS
2.1 nM	6/6	TLAQPQKELGYAKDAVA	DGSIRLG	QQYHRLPLV
860 pM	6/6	HITYGMYVSGRYISNIA	QAETRAK	QQYDRLPLM
15 nM	6/6	TIGQVMHYEDRNKNSVA	QTSTREE	QDYHRLPLS
13 nM	6/6	HITYGMMVAGRHSSSIA	QAETRAK	QQYDRLPLA
310 nM	2/6	MISQLMNMGQFAINSVA	QAETRNE	QQYDRLPLE
11 nM	6/6	TISQMTSSFSMNINNVA	EVSTRCK	QQYDRLPLA
410 pM	6/6	KISQSVLAESRNKNSVA	DASTRES	QQYHRLPLS
680 pM	6/6	ALSQSHLYESRMKNSVA	NASTREE	QQYHRLPLS
8.5 nM	6/6	KLMQEWEYQSRMKNSVA	HASERLS	QQYHRLPLS
37 nM	6/6	KISINQMHYNKMRSNIA	NTSQKAM	QQYFHLPLM
2.6 nM	6/6	KFHQSVLYESQNKNSVA	WASTRES	QQYHRLPLS
490 pM	6/6	KLQQSWLYESRNKNSVA	DASTRES	QQYHRLPLS
1.2 nM	6/6	KLGDMVHTLSHNKNSIA	DMRTRES	QQYYRLPLS
2.4 nM	6/6	KIMQSVCMESRNKNSVA	NASKRES	QQYHRLPLS
4.6 nM	6/6	HLSGSVLYESRNKNSVA	NASTRES	QQYHRLPLN
2.1 nM	6/6	KLDQWVEMESRNKNSVA	SASQRFS	QQYHRLPLS
960 pM	6/6	KMSNSVLYESRNKNSVA	QASTRES	QQYHRLPFS
2.2 nM	6/6	SLTIQQDENGLQHQSIA	GAGLRML	QQYHRLPLT
120 nM	5/6	MIQYGQERDSEHYNSIA	NDHEVSK	QQYYRLPLV
12 nM	6/6	KLRQVTGYESYVRNSVA	QTSTRAE	QDYHRLPLS
34 nM	6/6	KSSISYLYESRNKNSVA	AASTHES	QQYHRLPLS
380 pM	6/6	KVSQSELYESRNKNSVA	NASERES	QQYHRLPLS
2.6 nM	6/6	KWQKDSLGQEQYQNNIA	NQELRTA	QQYYMLPLT
4.3 nM	6/6	TISESTYWESRNKNSVA	QTSTREE	QDYDRLPLS
1.0 nM	6/6	KSSPSDLYSSRNQNSVA	SASTRES	QQYHRLPLS
670 pM	6/6	KLSESVLYQSQNWNQVA	DASTRMS	QQYHRLPLS
2.2 nM	6/6	KFSQSYLYESRNKNSVA	NASQRES	QQYHRLPLS
3.2 nM	6/6	KSLQSVLYESRNKNSVA	AASTRED	QQYHQLPLS
3.4 nM	6/6	KLMQSWLYESRNKNSVA	NASTRLS	QQYHRLPLS
3.0 nM	6/6	KISAVMENQLKNRNSVA	ELVTRMN	QQYNRLPLS
16 nM	3/6	KSSQQVLYESRNKNSVA	WASTREK	QQYFRLPLS
1.7 nM	6/6	KSSQSVLQEPRNKNSVA	DASTRES	QQYHRLPLS
2.1 µM	1/6	KSSQLVLYESRNENSVA	WASTRES	QQYHRLPLS
1.3 nM	6/6	TIGPMLMTESKNKNNVA	GMQTRER	QQYHRLPLS
49 nM	6/6	KISMSYRYESQEKNSIA	EMTTREE	QSYHRLPLA
1.0 nM	6/6	KLQGSVLYESRNKNSVA	GASQREK	QQYHRLPLS
1.6 nM	6/6	KSSQSDLDESRNKNSVA	QAHTRES	QQYHRLPLS
2.1 nM	6/6	TISQSMMYLSNLKNSVA	QAETRES	QQYHRLPIS
930 pM	6/6	HLEQSEEYESRMKNSVA	NASTRCS	QQYHRLPLS
290 pM	6/6	KLQMSAEYQSRNKNSVA	SASQREA	QQYHRLPLS
290 nM	2/6	SLGLVTMLEYAGRNNVA	NNSTREN	QQYDRLPLS
4.8 nM	6/6	KIAQSMAITSHHINSVA	QSTTREE	QQYNHLPLS
4.8 nM	6/6	TISQMFLGESRNRNSVA	QASTREP	QSYDRLPLS
1.2 nM	6/6	KLQQSWEYESRNKNSVA	NASTRLS	QQYHRLPLS
5.1 nM	6/6	KLTGIMRLESKNKSNIA	EVNERSE	QQYDRLPLS
39 nM	6/6	KMSQSVLMESSNKNSVA	WASTREL	QQYHRLPLS
5.8 nM	6/6	KSLQSVDYESRNKNSVA	HASTREQ	QQYHFLPLS
5.1 nM	6/6	TVSQVHEMLSRNKNSVA	DMNTREE	QQYDRLPLS
93 nM	1/6	KSSQSDLYESRNKVSVA	WASTRES	QQYHRLPIS
42 nM	6/6	KLWQSVLYESRNKNSVA	HASTRED	QQYHRLPLS
1.1 nM	6/6	KLSQSVLYESRNKNSVA	DASTRED	QQYHRLPLS
1.8 nM	6/6	KISFNTLIESKMLNSVA	EMTTREY	QDYDRLPLS
8.0 nM	5/6	KISMMYRFESTASNNIA	EMTTRAE	QSYHRLPLS
no signal	0/6	KLMNQMGGIEQMKNSIA	NLEIGAR	QQYAHLPLV
3.6 nM	6/6	KLSQSVLYESRNKNSVA	YASTRES	QQYHRLPLS
21 nM	6/6	KSSQSPLYESRNKNSVA	WASQRES	QQYHRLPLS
no signal	0/6	LIMKFMSQLGSARNNIA	GDTKLAQ	QAYYRLPLS
2.5 nM	6/6	KSSQSVLYESVNSNSVA	AASTRES	QQYHRMPLS
10 nM	6/6	MMSQVTLQGTRHRNNVA	QTSTREP	QQYDRLPLI
1.7 nM	6/6	GLSDQITEQIAHANSIA	DRDERDV	QQYSRLPLI
no signal	0/6	MISQLMNMGQFAINSVA	QAEIRNS	QQYDRLPLI
5.9 nM	6/6	TISQSLMMQTSHKNSVA	GEETRYS	QQYHRLPLS
58 nM	6/6	TISQSMYWESRNKNSVA	QTSTREE	QDYDRLPLS
7.6 nM	6/6	QLSSITGHLSVEKNNVA	EMETREN	QQYDRLPLS
490 pM	6/6	KLSQSELYESRAKNSVA	EASTRES	QQYHRLPLS
92 nM	3/6	TLGTSTLEESRNKNSVA	EMSMRES	QSYNRLPLS
210 nM	5/6	KIGMTLNTLMHTKNNVA	DLVTREN	QQYHRLPLS
670 pM	6/6	KLQAQQEYWSRNKNSVA	QASTRED	QQYHRLPLS
65 nM	5/6	KSVQYVGYESRNKNSVA	WASTRES	QQYHRLPLS
16 nM	6/6	KLQMLELQESRWCNSVA	QASTREE	QQYHRLPLS

A selection of 11 entries from above:

{"CDR-L1": "KSSQSVLYESSNVNSVA", "CDR-L2": "WASTREV", "CDR-L3": "QQYHRLPVS", "apparent Kd": "no signal", "seen in": "0/6"}
{"CDR-L1": "KSSQQVLYESRNKNSVA", "CDR-L2": "WASTREK", "CDR-L3": "QQYFRLPLS", "apparent Kd": "16 nM", "seen in": "3/6"}
{"CDR-L1": "KQSQSVLYESRNCNSVA", "CDR-L2": "SASTRES", "CDR-L3": "QDYHRLPLS", "apparent Kd": "10 nM", "seen in": "6/6"}
{"CDR-L1": "TISQSMYWESRNKNSVA", "CDR-L2": "QTSTREE", "CDR-L3": "QDYDRLPLS", "apparent Kd": "58 nM", "seen in": "6/6"}
{"CDR-L1": "ALSQSHLYESRMKNSVA", "CDR-L2": "NASTREE", "CDR-L3": "QQYHRLPLS", "apparent Kd": "680 pM", "seen in": "6/6"}
{"CDR-L1": "KLSQSELYESRAKNSVA", "CDR-L2": "EASTRES", "CDR-L3": "QQYHRLPLS", "apparent Kd": "490 pM", "seen in": "6/6"}
{"CDR-L1": "KVSQSVLYESRMKNSVA", "CDR-L2": "EASTRES", "CDR-L3": "QQYHRLPLS", "apparent Kd": "2.0 nM", "seen in": "6/6"}
{"CDR-L1": "QLTMITGHMSVSKNNVA", "CDR-L2": "EMETRMN", "CDR-L3": "QQYDRLPLS", "apparent Kd": "7.4 nM", "seen in": "6/6"}
{"CDR-L1": "KISQSVLAESRNKNSVA", "CDR-L2": "DASTRES", "CDR-L3": "QQYHRLPLS", "apparent Kd": "410 pM", "seen in": "6/6"}
{"CDR-L1": "KLTGIMRLESKNKSNIA", "CDR-L2": "EVNERSE", "CDR-L3": "QQYDRLPLS", "apparent Kd": "5.1 nM", "seen in": "6/6"}
{"CDR-L1": "TIGQVMHYEDRNKNSVA", "CDR-L2": "QTSTREE", "CDR-L3": "QDYHRLPLS", "apparent Kd": "15 nM", "seen in": "6/6"}

Three control strains display no target. For all light chain designs, 4% of the pairings with them gave a signal, with a median of 430 nM and one signal in twenty below 38 nM, so weak values seen in few replicates may be background. The parent sequence was in this pool as ten entries: three were never detected, three once, and four in most replicates, with averages from 2.2 nM to 240 nM. In the paper, a design with two or fewer of six values counts as a poor binder.

Values reported by Li et al. 2023, doi:10.1038/s41467-023-39022-2 (FLAb copy).